Our source for the inhibition values is PubChem BioAssay AID651957 (The Scripps Research Institute Molecular Screening Center, 2012).

By UniProt entry, the sequences of proteins in these tests, tags left out. Where a name states a change or a piece, a line headed by the entry shows the natural chain unless it says otherwise.
UniProt Q15596: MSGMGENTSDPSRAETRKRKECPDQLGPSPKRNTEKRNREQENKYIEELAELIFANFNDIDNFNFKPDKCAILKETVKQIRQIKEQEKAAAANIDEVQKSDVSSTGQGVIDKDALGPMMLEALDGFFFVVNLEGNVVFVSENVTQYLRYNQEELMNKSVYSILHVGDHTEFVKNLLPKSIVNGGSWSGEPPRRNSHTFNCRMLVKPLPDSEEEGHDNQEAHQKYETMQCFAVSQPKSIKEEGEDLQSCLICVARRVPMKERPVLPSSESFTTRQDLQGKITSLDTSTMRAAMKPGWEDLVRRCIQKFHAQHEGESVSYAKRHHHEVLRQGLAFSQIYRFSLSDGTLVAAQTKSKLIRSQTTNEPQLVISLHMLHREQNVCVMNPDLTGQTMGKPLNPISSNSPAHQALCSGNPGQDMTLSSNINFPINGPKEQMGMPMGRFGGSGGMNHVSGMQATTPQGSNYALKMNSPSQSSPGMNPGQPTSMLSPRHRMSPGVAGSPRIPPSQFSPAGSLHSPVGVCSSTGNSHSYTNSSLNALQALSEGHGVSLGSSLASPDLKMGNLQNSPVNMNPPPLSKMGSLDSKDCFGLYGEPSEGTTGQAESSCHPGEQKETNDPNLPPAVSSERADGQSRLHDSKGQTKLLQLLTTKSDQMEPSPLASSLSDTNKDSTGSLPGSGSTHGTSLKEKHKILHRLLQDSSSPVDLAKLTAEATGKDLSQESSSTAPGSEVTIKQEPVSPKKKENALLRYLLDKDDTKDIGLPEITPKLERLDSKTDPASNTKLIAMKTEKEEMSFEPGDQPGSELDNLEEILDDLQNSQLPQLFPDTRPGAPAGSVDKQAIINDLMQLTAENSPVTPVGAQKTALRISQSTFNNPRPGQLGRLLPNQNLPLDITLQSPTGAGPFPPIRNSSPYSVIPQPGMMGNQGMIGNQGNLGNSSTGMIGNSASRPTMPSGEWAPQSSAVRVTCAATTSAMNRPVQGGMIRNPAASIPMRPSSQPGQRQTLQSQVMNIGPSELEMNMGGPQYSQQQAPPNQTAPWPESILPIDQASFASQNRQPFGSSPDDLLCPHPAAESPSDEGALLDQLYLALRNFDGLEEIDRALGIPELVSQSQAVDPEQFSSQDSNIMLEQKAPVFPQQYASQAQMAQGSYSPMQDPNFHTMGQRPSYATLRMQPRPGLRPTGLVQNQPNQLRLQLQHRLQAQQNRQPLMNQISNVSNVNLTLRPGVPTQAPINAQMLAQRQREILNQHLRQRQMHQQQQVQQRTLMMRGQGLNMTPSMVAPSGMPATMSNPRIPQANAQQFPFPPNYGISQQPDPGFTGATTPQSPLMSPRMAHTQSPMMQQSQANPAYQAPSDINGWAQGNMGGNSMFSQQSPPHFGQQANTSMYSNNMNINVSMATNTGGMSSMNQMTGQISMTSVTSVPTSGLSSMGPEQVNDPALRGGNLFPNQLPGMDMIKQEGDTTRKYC

As a reminder, the inhibition is the change of the read-out against control, counted positive when it falls.

The entries are a selection whose mix differs from that of the whole data set. Calls of active or inactive are those of the source.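 Rule for the calls: active = inhibition above the mean inhibition of all tested compounds plus 3 SD, set per campaign (cut at about 52% in these data); inactive = the rest.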

The experiment deals with Nuclear receptor coactivator 2 (Homo sapiens) (UniProt Q15596). As to the kind of experiment: inhibition of GAL4-SRC2 driven luciferase reporter, primary screen, SRC2 inhibitor project, cell-based, luminescence (AID 651957).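 Note: 0% = DMSO treated cells and 100% = cells given Gossypol at 36 µM.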 To be noted: HEK293 GAL4-SRC2 luciferase reporter, at 9 µM, active compounds read high.
In the case of `O=P(Nc1nccs1)(Oc1ccccc1)Oc1ccccc1`, the inhibition was inactive: -21.5%.

For the compound `CCOP1(=S)c2c(C)nn(CCC#N)c2N=C(c2ccccc2F)N1C` (stereo unspecified), the inhibition was inactive: -17.5%.

In the case of `Nc1ccccc1[As](=O)(O)c1ccccc1`, the inhibition was inactive: -11.9%.

As for `O=C(O)COc1ccc([As](=O)(O)O)cc1[N+](=O)[O-]`, the inhibition is inactive: 5.47%.

Turning to `NC(=O)Nc1ccc([As](=O)(O)O)cc1`, the inhibition is inactive: -10.1%.

Regarding `CN(C(=O)Cc1ccc(Cl)c(Cl)c1)[C@H]1CC[C@@]2(CCCO2)C[C@@H]1N1CCCC1`, the inhibition was inactive: -2.47%.

On to `CN(C)C(=O)c1cc([N+](=O)[O-])cc2c1-c1c(cc([N+](=O)[O-])cc1[N+](=O)[O-])C2=O`, for which the inhibition is inactive: 9.01%.

With `O=[N+]([O-])c1ccc2c(c1)nnn2O`, the inhibition was inactive: 13.8%.

For the compound `CCOP1(=S)c2c(C)nn(CCC#N)c2N=C(c2ccc(F)cc2)N1C` (stereo unspecified), the inhibition is inactive: -8.76%.

For `CN(C(=O)Cc1ccccc1)[C@@H]1CC[C@]2(CCCO2)C[C@H]1N1CCCC1`, the inhibition is inactive: -12.8%.

For `N#CCCN(C(=O)COC(=O)C(O)(c1ccccc1)c1ccccc1)c1ccc(F)cc1`, the inhibition was inactive: 6.64%.

`CS(=O)(=O)c1ccc(Cl)c(NC(=O)COC(=O)C(O)(c2ccccc2)c2ccccc2)c1`: the inhibition is inactive: 14.1%.

As to `COc1cc(C(=O)NCC2(N3CCOCC3)CCCCC2)cc(Cl)c1OC(C)C`, the inhibition is inactive: 6.82%.

Regarding `O=[As](O)(O)c1cccnc1`, the inhibition is inactive: -10.7%.

For the compound `O=C(OC1CN2CCC1CC2)c1ccc(Cl)cc1` (stereo unspecified), the inhibition was inactive: -7.01%.

Regarding `O=[As](O)(c1cccc(O)c1)c1cccc(O)c1`, the inhibition is inactive: 3.12%.

With `Cc1cccc(OCC(=O)OC2CN3CCC2CC3)c1` (stereo unspecified), the inhibition was inactive: 3.9%.

With `CCCOP(=S)(Nc1nc(N)cc(=O)[nH]1)OCCC`, the inhibition was inactive: 10.7%.

Consider `Nc1cccc2c([As](=O)(O)O)cccc12`, for which the inhibition is inactive: 3.13%.

As to `Cc1ccc(NCCc2c([N+](=O)[O-])cc([N+](=O)[O-])cc2[N+](=O)[O-])cc1`, the inhibition is inactive: -14.4%.

Turning to `CCOP(=O)(Nc1cccc2ccccc12)OCC`, the inhibition was inactive: -16.8%.

For `COc1cc(C2NCCC3(OCCO3)C2(C)C)cc(OC)c1OC` (stereo unspecified), the inhibition was inactive: 3.35%.

On to `CN(CCCl)Cc1cc(Cl)c(NC2=NCCN2)c(Cl)c1`, for which the inhibition is inactive: -28.8%.

With `CCOP(=O)(Nc1ccc(C)cn1)OCC`, the inhibition was inactive: 13.7%.

For the compound `CCOP(=O)(NC(=NC(C)c1ccccc1)NC(C)c1ccccc1)OCC` (stereo unspecified), the inhibition is inactive: 3.95%.

Regarding `O=P1(Nc2ccccn2)COc2ccccc2OC1`, the inhibition was inactive: -2.56%.

As to `CCC1=CC2Cc3nc4ccc(Cl)cc4c(N)c3C(C1)C2` (stereo unspecified), the inhibition is inactive: -12%.

Regarding `CC(C)(C)C(=O)NC(Sc1ncccn1)C(Cl)(Cl)Cl` (stereo unspecified), the inhibition was inactive: 3.73%.

Turning to `O=P1(N(CCCl)CCCl)NCCC(C(F)(F)F)O1` (stereo unspecified), the inhibition is inactive: -6.48%.

`Clc1n[nH]nc1-c1nn[nH][15n]1`: the inhibition was inactive: -1.4%.

Consider `COc1ccccc1CNC(=O)COC(=O)C(O)(c1ccccc1)c1ccccc1`, for which the inhibition is inactive: 20%.

On to `CC1(CBr)Cn2c(nc3ccccc3c2=O)S1` (stereo unspecified), for which the inhibition was inactive: -6.27%.

With `CN(C(=O)Cc1ccc(Cl)c(Cl)c1)C1CCCC[C@@H]1N1CCCC1` (stereo partly specified), the inhibition is inactive: -17.8%.

On to `CC(C)/C=N\N=C(\N)N[N+](=O)[O-]`, for which the inhibition was inactive: -4.1%.

In the case of `CN(C(=O)Cc1ccc(Cl)c(Cl)c1)[C@@H]1CCCC[C@H]1N1CCCC1`, the inhibition is inactive: 14.4%.

As to `CC1CCC(C(C)C)C(OP(=O)(Nc2ccccn2)c2ccccc2)C1` (stereo unspecified), the inhibition is inactive: -19.6%.

Regarding `Cc1ccc(C(=O)OC2CN3CCC2CC3)cc1` (stereo unspecified), the inhibition was inactive: 6.9%.

With `Cc1nn(-c2ccccc2)c2c1P(=O)(N1CCOCC1)N(C)C(c1ccccc1)=N2` (stereo unspecified), the inhibition is inactive: -21.3%.

Turning to `CCCC1OP(=O)(Nc2ccccc2)OCC1CC` (stereo unspecified), the inhibition was inactive: -9.19%.

On to `O=C(/C=C/c1ccccc1)OC1CN2CCC1CC2` (stereo unspecified), for which the inhibition was inactive: -10.9%.

For `CN(C)C1(CNC(=O)c2ccc(S(C)(=O)=O)cc2)CCCCC1`, the inhibition was inactive: 6.9%.

With `O=P1(Nc2ncccn2)COc2ccccc2OC1`, the inhibition is inactive: -8.01%.

Take `Cc1ccc(S(=O)(=O)N(CCCN)CCCc2c(C)nc(N)[nH]c2=O)cc1`: the inhibition was inactive: 8.01%.

`O=P1(Nc2ccc(Br)cn2)COc2ccccc2OC1`: the inhibition was inactive: -14.2%.

`NS(=O)(=O)c1cccc(NC(=O)COC(=O)C(O)(c2ccccc2)c2ccccc2)c1`: the inhibition is inactive: -11%.

Turning to `O=[As](O)(c1cccs1)c1cccs1`, the inhibition was inactive: -9.63%.

Regarding `Cc1ccc(OCC(=O)OC2CN3CCC2CC3)cc1` (stereo unspecified), the inhibition is inactive: -20.1%.

Take `Nc1cccc([As](=O)(O)c2ccccc2)c1`: the inhibition was inactive: -12%.

Regarding `CC1CCNP(=O)(N(CCCl)CCCl)O1` (stereo unspecified), the inhibition is inactive: 13.1%.

`CCOC(=O)Nc1ccc([As](=O)(O)O)c(O)c1`: the inhibition was inactive: -0.56%.

For `O=C(O)C(O)c1ccc(N(CCCl)CCCl)cc1` (stereo unspecified), the inhibition is inactive: -2.39%.

Regarding `Cc1cc(SC(NC(=O)c2ccccc2)C(Cl)(Cl)Cl)nc(C(C)C)n1` (stereo unspecified), the inhibition was inactive: -5.87%.

Consider `CCCCOc1ccc(C(=O)NCC2(N3CCCCC3)CCCCC2)cc1OC`, for which the inhibition was inactive: -31.9%.

`COP(=O)(OC)N1CC1c1ccccc1` (stereo unspecified): the inhibition was inactive: 1.12%.

As to `CCOC(=O)Nc1cccc([As](=O)(O)O)c1`, the inhibition was inactive: -33.7%.

As to `O=[N+]([O-])c1ccc(Nc2ccc(Oc3ccc([N+](=O)[O-])cc3[N+](=O)[O-])cc2)c([N+](=O)[O-])c1`, the inhibition was inactive: -6.98%.

As for `O=P(Nc1ccccn1)(c1cccc2ccccc12)c1cccc2ccccc12`, the inhibition was inactive: 15%.

Turning to `Cc1cc(SC(NC=O)C(Cl)(Cl)Cl)ncn1` (stereo unspecified), the inhibition is inactive: 0.11%.

For the compound `COC(=O)C1(C)COP(=O)(N2CCCC2)OC1` (stereo unspecified), the inhibition is inactive: -51%.

As to `COP1(=S)c2c(C)nn(CCC#N)c2N=C(c2ccc(F)cc2)N1C` (stereo unspecified), the inhibition is inactive: -10.4%.

Take `O=C(Nc1ccncc1[N+](=O)[O-])c1ccc([N+](=O)[O-])cc1[N+](=O)[O-]`: the inhibition is inactive: 16.9%.

As for `O=C(COc1ccccc1)OC1CN2CCC1CC2` (stereo unspecified), the inhibition is inactive: 2.21%.

`O=C(O)C(=O)c1ccc(N(CCCl)CCCl)cc1`: the inhibition was inactive: 8.88%.

Consider `CCOC(=O)c1ccc(NC(=O)C(C)(CCl)SC)cc1` (stereo unspecified), for which the inhibition is inactive: 7.57%.

For `O=C(OC1CN2CCC1CC2)c1cccc([N+](=O)[O-])c1` (stereo unspecified), the inhibition was inactive: 3.74%.

Consider `CCC(C)N(CC(C)C)C(=S)SC(NC(C)=O)C(Cl)(Cl)Cl` (stereo unspecified), for which the inhibition is inactive: -17.9%.

On to `Cc1cc(=O)[nH]c(N[N+](=O)[O-])n1`, for which the inhibition is inactive: 3.22%.

Take `O=C(OC1CN2CCC1CC2)C12CC3CC(CC(C3)C1)C2` (stereo unspecified): the inhibition was inactive: -18.9%.

Consider `Cc1c2c(nc3ccccc13)SC(C(Cl)Cl)C2` (stereo unspecified), for which the inhibition is inactive: -10.6%.

Turning to `COc1cc(I)ccc1[As](=O)(O)O`, the inhibition was inactive: 2.64%.

Take `COc1ccc2nc(NP(=O)(c3ccccc3)c3ccccc3)sc2c1`: the inhibition was inactive: -14.9%.

Take `O=P1(N(CCCl)CCCl)Nc2ccccc2N1`: the inhibition was inactive: -43.3%.

Turning to `O=P1(N(CCCl)CCCl)OCCCN1CCCl` (stereo unspecified), the inhibition was inactive: -5.01%.

As to `COc1ccc(N/C(=N/P(=O)(N2CCOCC2)N2CCOCC2)N2CCOCC2)cc1`, the inhibition is inactive: -21%.

Consider `O=[N+]([O-])c1cc(Oc2ccc([N+](=O)[O-])cc2C(F)(F)F)cc([N+](=O)[O-])c1`, for which the inhibition was inactive: -18.5%.

As to `COc1cc(C(=O)NCC2(N3CCOCC3)CCCCC2)ccc1OCC(C)C`, the inhibition is inactive: -8.49%.

With `O=[N+]([O-])c1ccc(-c2cc([N+](=O)[O-])c(O)c([N+](=O)[O-])c2)cc1`, the inhibition is inactive: 16.3%.

As for `C[As](=O)(O)c1cccc(C(=O)O)c1`, the inhibition was inactive: 6.94%.

Take `O=[As](O)(c1ccc(O)cc1)c1ccccc1O`: the inhibition was inactive: -17.5%.

For `Cc1ccc2nc3c(c(C)c2c1)CC(C(Cl)Cl)S3` (stereo unspecified), the inhibition was inactive: -46.6%.

On to `[N-]=[N+]=NC1CCCCC1NC(=O)c1cc([N+](=O)[O-])cc([N+](=O)[O-])c1` (stereo unspecified), for which the inhibition is inactive: 3.9%.

Take `Cc1ccc(OP(=O)(Nc2ccc([N+](=O)[O-])cn2)Oc2ccc(C)cc2)cc1`: the inhibition was inactive: -19.6%.

For `CC(C)c1ccc(OP(=O)(Nc2ccccn2)Oc2ccccc2F)cc1` (stereo unspecified), the inhibition is inactive: -15.5%.

For `COC(=O)C1(C)COP(=O)(N2CCCCCC2)OC1` (stereo unspecified), the inhibition is inactive: 13.9%.

`ClCCSc1nnc(-c2cccnc2)o1`: the inhibition is inactive: -34.1%.

Regarding `O=C(OC1CN2CCC1CC2)c1cccc2[nH]cnc12` (stereo unspecified), the inhibition is inactive: -9.23%.

For `CCN(CC)C(=S)SC(NC=O)C(Cl)(Cl)Cl` (stereo unspecified), the inhibition was inactive: -44.6%.

Regarding `CC(C)NC(=O)NP(=O)(Oc1ccccc1)Oc1ccccc1`, the inhibition was inactive: -6.24%.

With `CCCC1OP(N)(=O)OCC1CC` (stereo unspecified), the inhibition was inactive: 1.13%.

As for `O=C(O)c1ccccc1[As](=O)(O)O`, the inhibition was inactive: 8.89%.

Turning to `CC(=O)Nc1ccc([As](=O)(O)O)cc1`, the inhibition is inactive: 7.54%.

`CN(C)P(=O)(N(C)C)n1c(Nc2ccccc2)nnc1-c1ccccc1`: the inhibition was inactive: -33.6%.

With `O=P(Nc1nc2ccc(Cl)cc2s1)(c1ccccc1)c1ccccc1`, the inhibition was inactive: -38.5%.

Take `Cc1ccc(NP(=O)(Oc2ccccc2F)Oc2ccccc2F)nc1`: the inhibition was inactive: 4.07%.

Take `CN(C(=O)Cc1ccc(Cl)c(Cl)c1)[C@H]1CCCC[C@@H]1N1CCCC1`: the inhibition was inactive: -12.5%.

On to `CCOP(=O)(Nc1ccccc1)OCC`, for which the inhibition is inactive: -0.57%.

`Cc1cc(SC(NC(=O)c2ccc(F)cc2)C(Cl)(Cl)Cl)ncn1` (stereo unspecified): the inhibition is inactive: -23.4%.

Consider `CCn1c(=O)n(C2CCN(CC3CCCCCCC3)C[C@H]2CO)c2ccccc21` (stereo partly specified), for which the inhibition is inactive: 28.7%.

For `CCN(N=Nc1nonc1N)c1nonc1N`, the inhibition is inactive: 21.5%.

As for `CN(C(=O)Cc1ccccc1)C1CC[C@@]2(CCCO2)C[C@@H]1N1CCCC1` (stereo partly specified), the inhibition is inactive: 8.27%.

Turning to `Nc1cccc2ccc([As](=O)(O)O)cc12`, the inhibition is inactive: -9.66%.
